Rows were chosen to be rich in hits. Some 0.43% of all compounds tested hit in one or more screens of this group.
HCMV UL50-53 inh: cytomegalovirus nuclear egress complex inhibition; inhibition, % (concentration not given with the values); HTRF UL50-UL53 interaction, normalized percent inhibition; hit rate 0.15% among 190,000; in the data active means inhibition above about 27%, passing the limit was not always enough
GIV-Gai inh: blocks GIV peptide binding to rat Galpha-i3; P08753; Galpha-i3/FITC-GIV peptide fluorescence polarization, 90 min; stronger effect = lower value; scaled: aluminum fluoride 0%, vehicle 100%; percent of control (FP), % (no concentration beside the values); 210,000 tested, 0.42% active; AID 1224905;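 active = replicate mean at 85% of control or lower, very high polarization wells dropped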;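 also: wells of about 15 µL received 100 nL stock; the first replicate is given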
GIV Gai FP conf: GIV-Galpha-i3 inhibition, FP confirmation. shares compounds with GIV-Gai inh. FITC-GIV peptide binding to Galphai3, fluorescence polarization; hits give low values. fluorescence polarization, mP at 100 µM. hit rate 38% among 580;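 active means inhibition score of 15 or more, meaning 100 minus mean polarization as percent of control over three replicates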;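 further: lower mP means peptide displaced from Galphai3 so more inhibition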
GIV Gai AS conf: confirmation of inhibitors of GIV binding to human Galpha-i3. shares compounds with GIV-Gai inh. AlphaScreen Galphai3-GIV binding, purified proteins, 90 min; hits give low values. AlphaScreen counts at 100 µM. hit rate 39% among 580. AID 1259351;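 active means inhibition score at or above a set limit, where the score is 100 minus the three-replicate mean percent of control signal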
* = called active by the depositor; . = not tested or not shown.

#	canonical_smiles	HCMV UL50-53 inh	GIV-Gai inh
1	Cn1nc(-c2ccc(F)cc2)nc2c(=O)n(C)c(=O)nc1-2	83*	15*
2	COc1ccc(-c2c(-c3ccc(OC)c(OC)c3)c(C)n(C)c2C)cc1OC	-44	118
3	COc1ccc(-n2ccc(=O)c(-c3nc(-c4ccc(F)cc4)no3)n2)cc1	.	101
4	COc1ccc(-c2nc3c(=O)n(C)c(=O)nc-3n(C)n2)cc1OC	74	57*
5	CCCNCc1cc(=O)n2[nH]c(NCc3ccc(C(C)C)cc3)nc2n1	-14	97
6	Cc1sc(-c2noc(C3CCC3)n2)cc1S(=O)(=O)N1CCC(C(=O)NCC2CCCO2)CC1 (configuration not stated)	-6	108
7	Cc1c(C(=O)Nc2ccc(C(C)C)cc2)sc2ncn(CC(=O)Nc3cccc(C(F)(F)F)c3)c(=O)c12	-9	103
8	COC(=O)Cn1cnc2c(nnn2Cc2ccccc2F)c1=O	14	109
9	CCCCC(C(=O)O)N1C(=O)/C(=C/c2cccnc2)SC1=S (configuration not stated)	-45	83*
10	CCCC(C(=O)O)N1C(=O)/C(=C/c2ccc(C)cc2)SC1=S (configuration not stated)	-16	.
11	COc1ccc(OCCn2c(C(F)(F)F)nc3cc4c(cc32)OCCO4)cc1	16	99
12	COc1ccccc1/C=C1\C(=O)N(c2ccc(C)cc2)C2=C1C(c1ccccc1)N(c1ccc(C)cc1)C2=O (configuration not stated)	.	100
13	Cc1ccc(N2C(=O)/C(=C\c3ccc(C(C)C)cc3)C3=C2C(=O)N(c2ccc(C)cc2)C3c2ccccc2)cc1 (configuration not stated)	.	85*
14	Cc1cc(C)nc(NC(c2cccc(F)c2)c2cc(C)sc2NC(=O)c2ccccc2)n1 (configuration not stated)	0	69*
15	Cc1cc(C)nc(NC(c2ccccc2)c2cc(C)sc2NC(=O)c2ccccc2)n1 (configuration not stated)	-8	109

#	GIV Gai FP conf	GIV Gai AS conf
1	28*	22497
2	.	.
3	.	.
4	42*	27053*
5	.	.
6	.	.
7	.	.
8	.	.
9	72	35991
10	.	.
11	.	.
12	.	.
13	70	46540
14	65	35362
15	.	.

By substructure, those above containing two or more sulfur atoms (three)
#	canonical_smiles	HCMV UL50-53 inh	GIV-Gai inh
6	Cc1sc(-c2noc(C3CCC3)n2)cc1S(=O)(=O)N1CCC(C(=O)NCC2CCCO2)CC1 (configuration not stated)	-6	108
9	CCCCC(C(=O)O)N1C(=O)/C(=C/c2cccnc2)SC1=S (configuration not stated)	-45	83*
10	CCCC(C(=O)O)N1C(=O)/C(=C/c2ccc(C)cc2)SC1=S (configuration not stated)	-16	.

#	GIV Gai FP conf	GIV Gai AS conf
6	.	.
9	72	35991
10	.	.

(listing goes on)
#	canonical_smiles	HCMV UL50-53 inh	GIV-Gai inh
16	O=C1NCCC2C1N=C(N1CCCCC1)N2C1OC(CO)C(O)C1O (configuration not stated)	4	.
17	CN1C(=O)NC2(O)C(=O)c3ccccc3C12O (configuration not stated)	.	110
18	CCCN1C(=O)NC2(O)C(=O)c3ccccc3C12O (configuration not stated)	.	77*
19	O=C1CCCC(O)=C1C1(O)C(=O)c2ccccc2C1=O	74*	62*
20	O=C1CCCC(O)=C1C1=NC2(CCCCCC2)Cc2ccccc21	.	103
21	Cn1c(SCC(=O)Nc2ccc3c(c2)OCCO3)nc2cc(-c3ccccc3)sc2c1=O	.	103
22	CN(c1ccccc1)c1nc(OC(C(F)(F)F)C(F)(F)F)nc(OC(C(F)(F)F)C(F)(F)F)n1	-17	109
23	CC(C)c1ccc(C2C(C#N)=C(N)N3C(=C2C#N)Sc2ccccc23)cc1 (configuration not stated)	.	79*
24	CC1=C(C(=O)OC(C)C)C(c2ccc(C(C)C)cc2)C(C#N)=C(N)S1 (configuration not stated)	-8	.
25	Cc1nc(C)c(-c2nc(-c3cc4c(C)nn(-c5ccccc5)c4s3)no2)s1	-10	128
26	Cc1ccsc1-c1nc(-c2cc3c(C)nn(-c4ccccc4)c3s2)no1	-14	41*
27	CC(C)NC(=O)c1cn2c(n1)COCC2	.	100
28	CC(C)NC(=O)CCn1cnc2onc(-c3cccc(F)c3)c2c1=O	1	101
29	COC(=O)CCn1cnc2onc(-c3cc(F)cc(F)c3)c2c1=O	-37	71*
30	Nc1c(C(=O)Nc2ccccn2)sc2nc(-c3cccs3)cc(C(F)(F)F)c12	.	43*

#	GIV Gai FP conf	GIV Gai AS conf
16	.	.
17	.	.
18	57	47718
19	56*	55998
20	.	.
21	.	.
22	.	.
23	75	39185
24	.	.
25	.	.
26	85	32151
27	.	.
28	.	.
29	80	36007
30	54	56627

Next entries follow.
#	canonical_smiles	HCMV UL50-53 inh	GIV-Gai inh
31	Cc1cccc(NC(=O)c2sc3nc(-c4cccs4)cc(C(F)(F)F)c3c2N)n1	.	114
32	Cc1ccc(-n2cc3cnnc(-c4ccccc4)c3n2)cc1	-36	.
33	CCOc1cc(C=C2C(=O)NC(=O)NC2=O)cc(Cl)c1OC(=O)c1ccc(OC)cc1	49*	75*
34	CCOc1cc(/C=C2\SC(=S)NC2=O)cc(Cl)c1OC(=O)c1ccc(OC)cc1	.	115
35	COc1ccc(CCNC(=O)CSC2=NS(=O)(=O)c3ccccc32)cc1OC	-16	97
36	O=C(CSC1=NS(=O)(=O)c2ccccc21)Nc1ccccc1	-17	66*
37	CCOc1cc(C(=O)Nc2c3c(nn2-c2ccc([N+](=O)[O-])cc2)CSC3)cc(OCC)c1OCC	-7	103
38	Nc1nonc1C(=O)NCCN=Cc1ccccc1O	-2	106
39	Nc1nonc1C(=O)NN=c1c(=O)c2ccccc2c1=O	-20	80*
40	CN(Cc1ccccc1)C(=O)c1cc2c(=O)n3ccccc3nc2n1C	-30	68*
41	CCN(Cc1ccccc1)C(=O)c1cc2c(=O)n3ccccc3nc2n1C	-50	102
42	CCN1CCN(C2(CNC(=O)CC(C)C)CCCCC2)CC1	-22	100
43	Cc1ccc(C(C)C)c(OCC(=O)Nc2cc(-c3nc4ncccc4o3)ccc2C)c1	.	88
44	Cc1ccc(C(C)C)c(OCC(=O)Nc2cccc(-c3nc4ncccc4o3)c2)c1	-68	108
45	O=C(Nc1ccc(-c2nc3ncccc3o2)cc1)c1ccccc1	.	107

#	GIV Gai FP conf	GIV Gai AS conf
31	.	.
32	.	.
33	64	50946
34	.	.
35	.	.
36	59	10980*
37	.	.
38	.	.
39	59	25933*
40	70	35770
41	.	.
42	.	.
43	62	43747
44	.	.
45	.	.

Going on with the list.
#	canonical_smiles	HCMV UL50-53 inh	GIV-Gai inh
46	Cc1cc(C)c2oc(-c3ccc(NC(=O)COc4ccccc4C)cc3)nc2c1	-56	105
47	Cc1ccc(OCC(=O)Nc2ccc(-c3nc4ccccc4o3)cc2)c(C)c1	11	93
48	Cc1cc(C)cc(C(=O)Nc2ccc(-c3nc4ncccc4o3)cc2)c1	-39	82*
49	O=C(CCN(CCCN1CCCC1)C(=O)c1ccc(Br)cc1)N1CCNCC1	-27	96
50	COc1cc(-c2nc(C=Nc3ccc4ccccc4c3)c(O)o2)cc(OC)c1OC	.	104
51	COC(=O)c1ccc(N=Cc2nc(-c3cc(OC)c(OC)c(OC)c3)oc2O)cc1	.	95
52	O=C(Nc1cc(F)cc(F)c1)Nc1nc(-c2ccc(Cl)c(Cl)c2)cn1/N=C/c1ccccc1	.	109
53	Cc1cc(=O)cc(C)n1-c1ccc(O)cc1	2	.
54	Cc1cc(=O)n(-c2ccc(O)cc2)[nH]1	69*	77*
55	COC(=O)c1ccc2c(c1)C1C3CCC(C3)C1C(c1ccccc1)N2 (configuration not stated)	.	99
56	Nc1n[nH]c2cc(=O)[nH]c(O)c12	110*	48*
57	Cc1cc2c(=O)[nH]nc(N)c2c(=O)[nH]1	-22	105
58	CCN(Cc1ccccc1)C(=O)C1CCN(S(=O)(=O)c2ccc3c(c2)sc(=O)n3CC)CC1	.	102
59	CCCN1CCN(C(=O)c2sc3ncnc(N4CCc5ccccc5C4)c3c2C)CC1	.	107

#	GIV Gai FP conf	GIV Gai AS conf
46	.	.
47	74	32376
48	81	27053
49	.	.
50	.	.
51	58	54563
52	.	.
53	.	.
54	49*	34971
55	.	.
56	45*	7988*
57	.	.
58	.	.
59	.	.
